Test results: patent US12139488B2, “Pyrido[3,2-d]pyrimidine compounds uses thereof for treating a proliferative disease” (Universite de Montreal, priority 2021, dated 2024)
Where two headings read alike, the source gives them in different places.

Protein sequences, listed by entry. Tags and fused reporters are not part of them.
UniProt P15056, whole entry: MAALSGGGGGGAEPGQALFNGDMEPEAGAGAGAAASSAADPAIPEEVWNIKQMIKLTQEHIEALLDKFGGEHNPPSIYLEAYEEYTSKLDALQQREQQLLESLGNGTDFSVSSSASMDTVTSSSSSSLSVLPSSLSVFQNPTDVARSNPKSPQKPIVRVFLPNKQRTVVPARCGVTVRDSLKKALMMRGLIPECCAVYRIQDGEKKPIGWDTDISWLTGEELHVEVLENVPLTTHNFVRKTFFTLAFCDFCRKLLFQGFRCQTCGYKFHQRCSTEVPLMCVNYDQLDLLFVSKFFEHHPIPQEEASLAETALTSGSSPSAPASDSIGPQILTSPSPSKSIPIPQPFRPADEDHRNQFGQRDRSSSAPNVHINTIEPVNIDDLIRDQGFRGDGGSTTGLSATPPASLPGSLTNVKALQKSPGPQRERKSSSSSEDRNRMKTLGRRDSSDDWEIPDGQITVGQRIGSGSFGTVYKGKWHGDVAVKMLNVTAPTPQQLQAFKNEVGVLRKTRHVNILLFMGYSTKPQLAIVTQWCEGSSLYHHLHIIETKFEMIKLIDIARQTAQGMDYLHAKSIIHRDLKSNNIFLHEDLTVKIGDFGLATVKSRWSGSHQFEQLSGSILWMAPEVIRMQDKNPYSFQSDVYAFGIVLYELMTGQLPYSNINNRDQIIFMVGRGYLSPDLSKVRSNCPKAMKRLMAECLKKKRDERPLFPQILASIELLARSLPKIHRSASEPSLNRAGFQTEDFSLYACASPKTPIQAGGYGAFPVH
UniProt P04049, whole entry: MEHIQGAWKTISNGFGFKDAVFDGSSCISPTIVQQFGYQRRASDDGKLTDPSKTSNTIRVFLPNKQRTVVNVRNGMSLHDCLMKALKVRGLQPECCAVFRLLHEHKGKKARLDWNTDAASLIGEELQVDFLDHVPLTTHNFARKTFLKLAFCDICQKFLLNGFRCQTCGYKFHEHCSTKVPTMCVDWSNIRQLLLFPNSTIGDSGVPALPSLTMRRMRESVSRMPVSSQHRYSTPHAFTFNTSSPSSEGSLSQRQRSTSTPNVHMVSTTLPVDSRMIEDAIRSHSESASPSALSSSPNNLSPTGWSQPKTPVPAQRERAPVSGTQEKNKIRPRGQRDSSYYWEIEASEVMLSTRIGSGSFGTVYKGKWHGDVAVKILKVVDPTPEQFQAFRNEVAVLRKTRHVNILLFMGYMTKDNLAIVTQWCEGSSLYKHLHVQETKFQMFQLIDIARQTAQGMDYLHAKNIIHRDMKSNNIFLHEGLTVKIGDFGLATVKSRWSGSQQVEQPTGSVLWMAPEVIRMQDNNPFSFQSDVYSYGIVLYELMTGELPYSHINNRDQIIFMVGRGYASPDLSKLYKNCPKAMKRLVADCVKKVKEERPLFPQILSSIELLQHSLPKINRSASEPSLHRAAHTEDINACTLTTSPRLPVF

Assays:
[1] = tested on: pERK in HCT-116 cells (KRAS G13D); assay: Phospho-ERK inhibition (AlphaLISA SureFire Ultra p-ERK 1/2), HCT116; conditions: HCT116 cells; for HCT116 pERK % Ymin (lowest value of the IC50 curve): Ymin above −20% = minimal or no paradoxical activation; for IC50: read-out: HCT116 pERK IC50; for HCT116 pERK Ymin %: Ymin in brackets
Summary of the method: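 Cells plated in RPMI-1640 with 5% FBS, kept overnight at 37° C, then treated 1 h with ten-point dilutions (top usually 10 μM; 0.5% DMSO). Lysate p-ERK1/2 (Thr202/Tyr204) read by AlphaLISA SureFire Ultra. % inhibition set against DMSO after subtracting the trametinib background; IC50 from four-parameter fit.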

BRAF = BRAF (Homo sapiens (Human), UniProt P15056); assay: BRAF kinase activity assay (ADP-Glo)
CRAF = CRAF (Homo sapiens, UniProt P04049); assay: CRAF kinase activity assay (ADP-Glo)
[2] = read-out: Kinase IC50 (nM), BRAF biochemical kinase assay, BRAF
[3] = read-out: Kinase IC50 (nM), CRAF biochemical kinase assay, CRAF
[4] = class symbol before the bracket
[5] = read-out: Kinase IC50 (nM) BRAF
[6] = read-out: Kinase IC50 (nM) CRAF
[7] = class symbol before the bracket, tested form: formate
[8] = read-out: Kinase IC50 (nM) BRAF, tested form: formate
[9] = read-out: Kinase IC50 (nM) CRAF, tested form: formate

## O=S(=O)(Nc1ccc(F)c(Nc2ncnc3ccc(-n4cnc5c(N6CCC(O)(CF)CC6)cccc54)nc23)c1F)c1cccc(Cl)c1Cl
[1]
  HCT116 pERK % Ymin (lowest value of the IC50 curve): −5%
  IC50: < 500 nM
BRAF; [2]
  IC50: < 1 nM
CRAF; [3]
  IC50: < 10 nM

## Cc1c(Cl)cccc1S(=O)(=O)Nc1ccc(F)c(Nc2ncnc3ccc(-n4cnc(C(=O)N5CCOCC5)n4)nc23)c1F
[1]
  HCT116 pERK Ymin %: 11%
[1]; [4]
  IC50: 1000 to 10000 nM
BRAF; [5]
  IC50: 1 to 10 nM
CRAF; [6]
  IC50: > 50 nM

## CCCN1CCN(c2cccc3c2nnn3-c2ccc3ncnc(Nc4c(F)ccc(NS(=O)(=O)c5cccc(Cl)c5Cl)c4F)c3n2)CC1
[1]
  HCT116 pERK % Ymin (lowest value of the IC50 curve): −3%
  IC50: < 500 nM
BRAF; [2]
  IC50: < 1 nM
CRAF; [3]
  IC50: < 10 nM

## Cc1c(Cl)cccc1S(=O)(=O)Nc1ccc(F)c(Nc2ncnc3ccc(-n4cnc5c(N6CCC[C@H](O)C6)cccc54)nc23)c1F
[1]
  HCT116 pERK % Ymin (lowest value of the IC50 curve): 8%
  IC50: < 500 nM
BRAF; [2]
  IC50: < 1 nM
CRAF; [3]
  IC50: < 10 nM

## Cc1c(F)cccc1S(=O)(=O)Nc1ccc(F)c(Nc2ncnc3ccc(-n4nc(C(=O)NCc5ccncc5)c5ccccc54)nc23)c1F
[1]
  HCT116 pERK Ymin %: −4.8%
[1]; [4]
  IC50: < 500 nM
BRAF; [5]
  IC50: 1 to 10 nM
CRAF; [6]
  IC50: > 50 nM

## O=C(c1nn(-c2ccc3ncnc(Nc4c(F)ccc(NS(=O)(=O)c5cccc(Cl)c5Cl)c4F)c3n2)c2ccccc12)N1CCC(O)CC1
[1]
  HCT116 pERK Ymin %: −13%
[1]; [4]
  IC50: < 500 nM
BRAF; [5]
  IC50: < 1 nM
CRAF; [6]
  IC50: 10 to 50 nM

## Cc1c(Cl)cccc1S(=O)(=O)Nc1ccc(F)c(Nc2ncnc3ccc(-n4cnc5c(N6CCC(O)(C(F)(F)F)CC6)cccc54)nc23)c1F
[1]
  HCT116 pERK % Ymin (lowest value of the IC50 curve): −4%
  IC50: < 500 nM
BRAF; [2]
  IC50: 1 to 10 nM
CRAF; [3]
  IC50: 10 to 50 nM

## Cc1c(F)cccc1S(=O)(=O)Nc1ccc(F)c(Nc2ncnc3ccc(-n4nnc5c(N)cccc54)nc23)c1F
[1]; tested form: HCl
  HCT116 pERK Ymin %: −7.4%
[1]; class symbol before the bracket, tested form: HCl
  IC50: < 500 nM
BRAF; read-out: Kinase IC50 (nM) BRAF, tested form: HCl
  IC50: < 1 nM
CRAF; read-out: Kinase IC50 (nM) CRAF, tested form: HCl
  IC50: < 10 nM

## CS(=O)(=O)N1CCN(c2cccc3c2ncn3-c2ccc3ncnc(Nc4c(F)ccc(NS(=O)(=O)c5cccc(Cl)c5Cl)c4F)c3n2)CC1
[1]
  HCT116 pERK % Ymin (lowest value of the IC50 curve): −10%
  IC50: < 500 nM
BRAF; [2]
  IC50: 1 to 10 nM
CRAF; [3]
  IC50: < 10 nM

## O=S(=O)(Nc1ccc(F)c(Nc2ncnc3ccc(-n4cnc5c(N6CC(CO)C6)cccc54)nc23)c1F)c1cccc(Cl)c1Cl
[1]
  HCT116 pERK % Ymin (lowest value of the IC50 curve): −2%
  IC50: < 500 nM
BRAF; [2]
  IC50: 1 to 10 nM
CRAF; [3]
  IC50: < 10 nM

## O=S(=O)(Nc1ccc(F)c(Nc2ncnc3ccc(-c4cncs4)nc23)c1F)c1cccc(Cl)c1Cl
[1]
  HCT116 pERK % Ymin (lowest value of the IC50 curve): −15%
  IC50: < 500 nM
BRAF; [2]
  IC50: < 1 nM
CRAF; [3]
  IC50: < 10 nM

## COCCNC(=O)c1nn(-c2ccc3ncnc(Nc4c(F)ccc(NS(=O)(=O)c5cccc(F)c5C)c4F)c3n2)c2ccccc12
[1]
  HCT116 pERK Ymin %: −8%
[1]; [4]
  IC50: < 500 nM
BRAF; [5]
  IC50: 1 to 10 nM
CRAF; [6]
  IC50: 10 to 50 nM

## Cc1c(F)cccc1S(=O)(=O)Nc1ccc(F)c(Nc2ncnc3ccc(-n4nc(C(=O)N5CC(N6CCNCC6)C5)c5ccccc54)nc23)c1F
[1]; tested form: formate
  HCT116 pERK Ymin %: −8.3%
[1]; [7]
  IC50: 1000 to 10000 nM
BRAF; [8]
  IC50: < 1 nM
CRAF; [9]
  IC50: 10 to 50 nM

## COC1CCCN(c2cccc3c2ncn3-c2ccc3ncnc(Nc4c(F)ccc(NS(=O)(=O)c5cccc(Cl)c5Cl)c4F)c3n2)C1 (single isomer, unassigned) [587]
[1]
  HCT116 pERK % Ymin (lowest value of the IC50 curve): 0%
  IC50: < 500 nM
BRAF; [2]
  IC50: 1 to 10 nM
CRAF; [3]
  IC50: 10 to 50 nM

## O=S(=O)(Nc1ccc(F)c(Nc2ncnc3ccc(-n4cnc5c(N6CCC(N7CCCC7)CC6)cccc54)nc23)c1F)c1cccc(Cl)c1Cl
[1]
  HCT116 pERK % Ymin (lowest value of the IC50 curve): 6%
  IC50: < 500 nM
BRAF; [2]
  IC50: < 1 nM
CRAF; [3]
  IC50: 10 to 50 nM

## CC(C)N1CCN(c2cccc3c2ncn3-c2ccc3ncnc(Nc4c(F)ccc(NS(=O)(=O)c5cccc(Cl)c5Cl)c4F)c3n2)CC1
[1]
  HCT116 pERK % Ymin (lowest value of the IC50 curve): −12%
  IC50: < 500 nM
BRAF; [2]
  IC50: < 1 nM
CRAF; [3]
  IC50: < 10 nM

## Cc1c(F)cccc1S(=O)(=O)Nc1ccc(F)c(Nc2ncnc3ccc(-n4nc(C(=O)N5CC6(CCNCC6)C5)c5ccccc54)nc23)c1F
[1]
  HCT116 pERK Ymin %: −1.2%
[1]; [4]
  IC50: 1000 to 10000 nM
BRAF; [5]
  IC50: < 1 nM
CRAF; [6]
  IC50: 10 to 50 nM

## CC1COCC(C)N1c1cccc2c1nnn2-c1ccc2ncnc(Nc3c(F)ccc(NS(=O)(=O)c4cccc(Cl)c4Cl)c3F)c2n1 (stereo not drawn)
[1]
  HCT116 pERK % Ymin (lowest value of the IC50 curve): −14%
  IC50: 500 to 1000 nM
BRAF; [2]
  IC50: > 10 nM
CRAF; [3]
  IC50: > 50 nM

## CN(C)CCN(C)C(=O)c1cn(-c2ccc3ncnc(Nc4c(F)ccc(NS(=O)(=O)c5ccccc5Cl)c4F)c3n2)c2ccccc12
[1]; tested form: formate
  HCT116 pERK Ymin %: −10%
[1]; [7]
  IC50: < 500 nM
BRAF; [8]
  IC50: < 1 nM
CRAF; [9]
  IC50: > 50 nM

## COCCCN(C)c1cccc2c1ncn2-c1ccc2ncnc(Nc3c(F)ccc(NS(=O)(=O)c4cccc(Cl)c4Cl)c3F)c2n1
[1]
  HCT116 pERK % Ymin (lowest value of the IC50 curve): −16%
  IC50: 500 to 1000 nM
BRAF; [2]
  IC50: > 10 nM
CRAF; [3]
  IC50: > 50 nM

## Cc1c(F)cccc1S(=O)(=O)Nc1ccc(F)c(Nc2ncnc3ccc(-n4nc(C(=O)N5CCC6(CCNCC6)C5)c5ccccc54)nc23)c1F
[1]; tested form: formate
  HCT116 pERK Ymin %: −7.1%
[1]; [7]
  IC50: 1000 to 10000 nM
BRAF; [8]
  IC50: < 1 nM
CRAF; [9]
  IC50: 10 to 50 nM

## Cc1c(F)cccc1S(=O)(=O)Nc1ccc(F)c(Nc2ncnc3ccc(-n4nc(C(=O)NCc5cccnc5)c5ccccc54)nc23)c1F
[1]
  HCT116 pERK Ymin %: −21%
[1]; [4]
  IC50: < 500 nM
BRAF; [5]
  IC50: 1 to 10 nM
CRAF; [6]
  IC50: > 50 nM

## Cc1c(F)cccc1S(=O)(=O)Nc1ccc(F)c(Nc2ncnc3ccc(-n4nc(C(=O)NC[C@H](O)CO)c5ccccc54)nc23)c1F
[1]
  HCT116 pERK Ymin %: −14.9%
[1]; [4]
  IC50: 1000 to 10000 nM
BRAF; [5]
  IC50: 1 to 10 nM
CRAF; [6]
  IC50: 10 to 50 nM

## Cc1c(Cl)cccc1S(=O)(=O)Nc1ccc(F)c(Nc2ncnc3ccc(-n4nc(C(=O)N5CC6CC5CN6)c5ccccc54)nc23)c1F (stereo not drawn)
[1]; tested form: formate
  HCT116 pERK Ymin %: −10%
[1]; [7]
  IC50: < 500 nM
BRAF; [8]
  IC50: < 1 nM
CRAF; [9]
  IC50: > 50 nM

## Cc1c(F)cccc1S(=O)(=O)Nc1ccc(F)c(Nc2ncnc3ccc(-n4nc(C(=O)N(C)C(C)c5ccccn5)c5ccccc54)nc23)c1F (stereo not drawn)
[1]
  HCT116 pERK Ymin %: −2.9%
[1]; [4]
  IC50: < 500 nM
BRAF; [5]
  IC50: 1 to 10 nM
CRAF; [6]
  IC50: > 50 nM

## Cc1c(Cl)cccc1S(=O)(=O)Nc1ccc(F)c(Nc2ncnc3ccc(-n4cc(C(=O)N5CCOCC5)c5c(N)cccc54)nc23)c1F
[1]
  HCT116 pERK Ymin %: 3.3%
[1]; [4]
  IC50: < 500 nM
BRAF; [5]
  IC50: < 1 nM
CRAF; [6]
  IC50: 10 to 50 nM

## Cc1c(Cl)cccc1S(=O)(=O)Nc1ccc(F)c(Nc2ncnc3ccc(-n4nc(C(=O)N5CCOCC5)cc4C)nc23)c1F
[1]
  HCT116 pERK Ymin %: −1%
[1]; [4]
  IC50: 1000 to 10000 nM
BRAF; [5]
  IC50: 1 to 10 nM
CRAF; [6]
  IC50: 10 to 50 nM

## Cc1c(F)cccc1S(=O)(=O)Nc1ccc(F)c(Nc2ncnc3ccc(-n4ncc5c(-c6ccncc6)cccc54)nc23)c1F
[1]
  HCT116 pERK Ymin %: 3.3%
[1]; [4]
  IC50: < 500 nM
BRAF; [5]
  IC50: 1 to 10 nM
CRAF; [6]
  IC50: 10 to 50 nM

## O=S(=O)(Nc1ccc(F)c(Nc2ncnc3ccc(-n4cnc5c(N6CCO[C@@H](CO)C6)cccc54)nc23)c1F)c1cccc(Cl)c1Cl
[1]
  HCT116 pERK % Ymin (lowest value of the IC50 curve): −11%
  IC50: < 500 nM
BRAF; [2]
  IC50: < 1 nM
CRAF; [3]
  IC50: < 10 nM

## Cc1c(F)cccc1S(=O)(=O)Nc1ccc(F)c(Nc2ncnc3ccc(-n4nc(C(=O)NCCc5ccccn5)c5ccccc54)nc23)c1F
[1]
  HCT116 pERK Ymin %: −5.4%
[1]; [4]
  IC50: < 500 nM
BRAF; [5]
  IC50: 1 to 10 nM
CRAF; [6]
  IC50: 10 to 50 nM
